Target: AR-VP16 (Homo sapiens, UniProt P10275)
Assay: AR-VP16 DNA Binding Assay, antagonist mode (HepG2 cells, 0.1 nM R1881)
Format: cell-based
Conditions: read-out: ARVP16 DNA Binding Assay (Antagonist mode): IC50 < 1.0 μM

Amino acid sequences for entries named in this document (tags omitted). Residues count along the entry.
UniProt P10275, 560-920 limits assumed: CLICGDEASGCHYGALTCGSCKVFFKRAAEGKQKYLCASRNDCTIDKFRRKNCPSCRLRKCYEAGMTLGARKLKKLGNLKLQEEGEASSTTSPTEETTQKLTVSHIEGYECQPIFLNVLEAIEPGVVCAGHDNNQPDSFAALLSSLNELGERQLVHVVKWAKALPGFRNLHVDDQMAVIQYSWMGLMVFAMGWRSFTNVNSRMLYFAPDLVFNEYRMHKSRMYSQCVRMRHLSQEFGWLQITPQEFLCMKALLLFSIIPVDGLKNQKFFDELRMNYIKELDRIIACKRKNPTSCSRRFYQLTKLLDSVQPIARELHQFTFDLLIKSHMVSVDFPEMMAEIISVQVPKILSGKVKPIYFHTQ

Row | SMILES | IC50
1 | N#Cc1ncc(N2C(=O)C3(CCC3)N(c3ccc(N4CCNCC4)cc3)C2=S)cc1C(F)(F)F [Compound 118, 5-(8-Oxo-5-(4-(piperazin-1-yl)phenyl)-6-thioxo-5,7-diazaspiro[3.4]octan-7-yl)-3-(trifluoromethyl)picolinonitrile] | > 1000 nM
2 | N#Cc1ncc(N2C(=O)C3(CCC3)N(c3ccc(O)cc3)C2=S)cc1C(F)(F)F [Compound 63, 5-(5-(4-hydroxyphenyl)-8-oxo-6-thioxo-5,7-diazaspiro[3.4]octan-7-yl)-3-(trifluoromethyl)picolinonitrile] | < 1000 nM
3 | CN1CCC(Oc2ccc(N3C(=S)N(c4cnc(C#N)c(C(F)(F)F)c4)C(=O)C34CCC4)cc2)CC1 [Compound 129, 5-(5-(4-((1-Methylpiperidin-4-yl)oxy)phenyl)-8-oxo-6-thioxo-5,7-diazaspiro[3.4]octan-7-yl)-3-(trifluoromethyl)picolinonitrile] | < 1000 nM
